Target: T1, human FGF-1 (flg) receptor tyrosine kinase (Homo sapiens, UniProt P11362)
T1 construct: a fragment of DNA that codes for the intracellular tyrosine kinase domain; made in house; host or cells: Sf9 insect cells (baculovirus), cell lysate
Assay: FGF receptor tyrosine kinase assay
Type: biochemical

By UniProt entry, the sequences of proteins in these tests, tags left out. Residues count along the entry.
UniProt P11362, 478-767 limits assumed: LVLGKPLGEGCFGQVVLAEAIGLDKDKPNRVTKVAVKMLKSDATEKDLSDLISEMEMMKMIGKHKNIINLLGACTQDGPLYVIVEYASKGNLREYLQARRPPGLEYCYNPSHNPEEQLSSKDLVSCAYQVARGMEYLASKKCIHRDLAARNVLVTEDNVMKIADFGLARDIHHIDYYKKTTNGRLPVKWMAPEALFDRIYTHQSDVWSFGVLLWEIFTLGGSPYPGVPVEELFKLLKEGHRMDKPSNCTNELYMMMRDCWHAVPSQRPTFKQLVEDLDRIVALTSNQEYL

IC50: 0.139 µM
Structure (SMILES): COc1ccc(NC(=O)Nc2nc3nc(NCCCN4CCN(C)CC4)ncc3cc2-c2c(Cl)cccc2Cl)cc1 [Example 41, 1-{6-(2,6-Dichlorophenyl)-2-[3-(4-methyl-piperazin-1-yl)-propylamino]-pyrido[2,3-d]pyrimidin-7-yl}-3-(4-methoxy-phenyl)-urea]

Source: patent US5733913A, “6-Aryl pyrido[2,3-d] pyrimidines and naphthyridines for inhibiting protein tyrosine kinase mediated cellular proliferation” (priority 1995, dated 1998)
